# Source: US20200199647A1, “ASSAY FOR SCREENING MODULATORS OF HOLOPHOSPHATASE ACTIVITY” (UNITED KINGDOM RESEARCH AND INNOVATION, priority 2017, published 2020)
# Amino acid sequences for entries named in this document (tags omitted). A change or cut given only in a name is not applied to a line headed by its entry. Chains listed by the source or under a name are the forms on record and can include a tag or linker. Residues count along the entry.
# UniProt O75807, 325-636, stated change not applied: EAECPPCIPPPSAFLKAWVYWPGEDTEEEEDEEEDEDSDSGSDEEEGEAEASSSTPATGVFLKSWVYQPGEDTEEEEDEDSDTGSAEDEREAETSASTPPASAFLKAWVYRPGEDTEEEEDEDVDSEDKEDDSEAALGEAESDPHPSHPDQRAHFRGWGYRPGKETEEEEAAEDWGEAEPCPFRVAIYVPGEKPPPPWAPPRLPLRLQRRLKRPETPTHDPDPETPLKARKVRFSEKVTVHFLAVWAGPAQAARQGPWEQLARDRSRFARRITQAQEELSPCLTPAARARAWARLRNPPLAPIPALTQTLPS
# R15A^N/R15B^C (Homo sapiens, UniProt O75807+Q5SWA1), UniProt O75807+Q5SWA1, fused, stated change not applied: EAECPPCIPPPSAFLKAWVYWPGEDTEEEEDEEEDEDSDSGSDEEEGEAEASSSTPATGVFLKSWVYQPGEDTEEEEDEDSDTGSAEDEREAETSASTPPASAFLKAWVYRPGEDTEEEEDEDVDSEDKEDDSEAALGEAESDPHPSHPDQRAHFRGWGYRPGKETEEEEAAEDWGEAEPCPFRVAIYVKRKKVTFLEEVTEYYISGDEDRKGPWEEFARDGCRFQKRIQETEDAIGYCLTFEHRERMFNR
# UniProt P62136, 7-330 partner: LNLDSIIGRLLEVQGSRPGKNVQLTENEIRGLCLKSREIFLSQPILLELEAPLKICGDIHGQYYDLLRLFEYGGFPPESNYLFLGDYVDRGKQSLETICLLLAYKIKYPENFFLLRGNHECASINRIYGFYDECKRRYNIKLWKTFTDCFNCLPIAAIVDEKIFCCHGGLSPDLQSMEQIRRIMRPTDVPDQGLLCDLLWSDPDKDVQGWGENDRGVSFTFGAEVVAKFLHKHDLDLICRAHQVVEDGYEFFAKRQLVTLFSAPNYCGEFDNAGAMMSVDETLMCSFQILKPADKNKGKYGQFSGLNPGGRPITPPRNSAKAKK
# What was measured:
# [1] = molecular target: T1, R15A^N/R15B^C (Homo sapiens, UniProt O75807+Q5SWA1); test: Dephosphorylation of P-eIF2α by chimeric holophosphatase PP1c-R15A^N/R15B^C; type: biochemical; details: PP1c 10 nM, compounds 100 μM, 30° C., 16 h
# T1 construct: PPP1R15A amino acids 325-636 (R15A), 325-512 (R15A^N), and 513-636 (R15A^C); PPP1R15B amino acids 340-698 (R15B), 340-635 (R15B^N), and 636-698 (R15B^C); R15B^C (PPP1R15B amino acids 636-698); His6 (C); made in house; host or cells: E. coli BL21 pLysS (chimera, eIF2α); E. coli BL21/pGro7 (PP1c)
# Text: (§1) The cDNA encoding human PPP1R15A, PPP1R15B and PPP1R3A regulatory subunits were cloned into a pMAL-c5×-His vector, encoding for an amino-terminal MBP-tag and a carboxy-terminal His6-tag. […] R15A^N/R15B^C Chimeras were obtained by swapping the amino-terminal regions (R15^N) of R15A and R15B proteins described above, whilst maintaining the same carboxy-terminal regions (R15^C), to produce R15B^N/R15A^C and […] chimeras respectively, using In-Fusion cloning (Takara). All regulatory subunits were expressed in BL21 pLysS cells in Luria broth (LB) at 30° C. overnight. […] R15 proteins were stored at −80° C. and used within one month.
# (§2) PP1c was diluted to the appropriate concentration (as indicated in the figure legends) in dephosphorylation buffer immediately prior to use. Dephosphorylation reactions were carried out by pre-incubating diluted PP1c in the presence or absence of regulatory subunits (either […]), and/or compounds (all at 100 μM, except for Salubrinal which was used at 30 μM), for 15′ at RT. All compounds were diluted in DMSO, and DMSO vehicle was used in all control experiments.
# (§3) The reaction was initiated by the addition of 1 μM P-eIF2α or ^33P Phosphorylase a substrates and then incubated at 30° C. for 16 h with shaking at 350 rpm. Reactions were stopped by addition of 4× Laemmli sample buffer. eIF2α samples were analyzed by immunoblotting or Phos-tag gels. […]
# [2] = molecular target: T2, PP1c (Homo sapiens, UniProt P62136); test: Dephosphorylation of P-eIF2α by increasing amounts of PP1c alone; type: biochemical; details: compound 100 μM, 30° C., 16 h
# T2 construct: The cDNA encoding amino acids 7-330 of human PP1cα; Thio6/His6 tag (MGSDKIHHHHHH) (N); made in house; host or cells: E. coli BL21/pGro7 (PP1c); E. coli BL21 pLysS (eIF2α)
# Description: as §2
# (§4) The reaction was initiated by the addition of 1 μM P-eIF2α or ^33P Phosphorylase a substrates and then incubated at 30° C. for 16 h with shaking at 350 rpm. Reactions were stopped by addition of 4× Laemmli sample buffer. eIF2α samples were analyzed by immunoblotting or Phos-tag gels. […] Samples in FIG. 8 and FIG. 16 were run on a 15% SuperSep Phos-tag acrylamide gel (Alpha Laboratories) and visualized by staining with InstantBlue Protein Stain.
# [3] = molecular target: T3, R15B (Homo sapiens, UniProt Q5SWA1); test: Pull-down: binding of P-eIF2α to MBP-tagged R15B on amylose beads; details: 200 μM compound, 200 nM MBP-R15B, 1 μM P-eIF2α, 10 min 4° C.
# T3 construct: PPP1R15B amino acids 340-698 (R15B); His6 (C); made in house; host or cells: E. coli BL21 pLysS
# T3 sequence (Q5SWA1 340-698): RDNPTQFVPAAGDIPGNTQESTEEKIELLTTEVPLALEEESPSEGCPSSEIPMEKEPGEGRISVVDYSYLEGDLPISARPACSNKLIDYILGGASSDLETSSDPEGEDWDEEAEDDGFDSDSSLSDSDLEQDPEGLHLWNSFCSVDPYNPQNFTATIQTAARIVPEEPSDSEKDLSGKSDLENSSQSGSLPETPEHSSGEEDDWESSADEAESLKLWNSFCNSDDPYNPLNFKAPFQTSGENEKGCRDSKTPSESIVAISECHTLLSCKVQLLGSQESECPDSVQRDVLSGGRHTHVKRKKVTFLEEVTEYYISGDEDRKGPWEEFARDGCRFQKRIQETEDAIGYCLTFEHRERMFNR
# Description: (§5) Purified MBP-tagged regulatory subunits (200 nM), P-eIF2α (1 μM), PP1c ([…]), and 200 μM compounds, or DMSO vehicle, were added as appropriate to 20 μl amylose magnetic bead, pre-equilibrated with interaction buffer (50 mM Tris (pH 7.4), 200 mM NaCl, 0.05% Tween20) in 200 μl volume. All protein dilutions were carried out in interaction buffer. 5% input sample was removed, and added to 4× Laemmli sample buffer for later analysis. The beads were incubated for 10′ at 4° C. The supernatant was removed, and the beads were washed thoroughly with interaction buffer and then resuspended with 50 μl of 2× Laemmli sample buffer. Samples were run on 4-12% NuPAGE Bis-Tris gels (Life Technologies) and analysed by immunoblotting, using anti-MBP HRP (E8038) (NEB), anti-eIF2α (ab26197) (AbCam) or anti-PPP1A (ab137512) (AbCam) antibodies.
# [4] = molecular target: T4, R15A (Homo sapiens, UniProt O75807); test: Pull-down: binding of P-eIF2α to MBP-tagged R15A on amylose beads; details: 200 μM compound, 200 nM MBP-R15A, 1 μM P-eIF2α, 10 min 4° C.
# T4 construct: PPP1R15A amino acids 325-636 (R15A); His6 (C); made in house; host or cells: E. coli BL21 pLysS
# Description: as §5
# [5] = system: α-2 adrenergic; details: cited from earlier work
# [6] = molecular target: T4, R15A; test: Binding of R15A to biotinylated compounds on Streptavidin beads and elution
# Description: Purified R15A protein was diluted to 1 μM in IP buffer (50 mM Tris [pH 7.4], 150 mM NaCl, 0.1% Tween20, 10% glycerol). 1 μM R15A, in 100 μl volume, was pre-cleared with 25 μl of Pierce Streptavidin Magnetic Beads (ThermoFisher) for 1 h at 4° C. with rotation at 20 rpm. The supernatants were collected and incubated with 0.5 mM biotinylated Guanabenz, Sephin1 or biotin control plus 25 μl of pre-equilibrated Pierce Streptavidin Magnetic Beads. Samples were incubated for 3 h at 4° C. with rotation at 20 rpm. The supernatant was removed, and samples were thoroughly washed and transferred to a fresh Eppendorf. The beads were washed thoroughly with 5×1 ml interaction buffer, with 30 min incubation each time, and then resuspended with 50 μl of 4% SDS Laemmli sample buffer. Samples were run on 4-12% NuPAGE Bis-Tris gels (Life Technologies), and analysed by immunoblotting using α-MBP HRP (E8038) (NEB) (to reveal R15A). Elution experiments were performed on beads containing R15A bound to biotinylated-Guanabenz or biotinylated-Sephin1, by adding 100 μl of interaction buffer containing 2 mM Guanabenz or Sephin1, respectively, or DMSO vehicle control. Samples were incubated for 10 min at 4° C. with 20 rpm rotation. […] 10 μl sample was run on 4-12% NuPAGE Bis-Tris gel (Life Technologies), and analysed by immunoblotting using α-MBP HRP (E8038) (NEB) (to reveal R15A).
# [7] = molecular target: T5, PP1 (1 μM) in the presence of R15A (Homo sapiens, UniProt O75807); test: In vitro dephosphorylation of P-eIF2α using stoichiometric PP1c (1 μM) with R15A; type: biochemical; details: 1 μM PP1c, 1 μM P-eIF2α, 30° C., 16 h; compounds 100 μM
# T5 construct: PPP1R15A amino acids 325-636 (R15A); His6 (C); made in house; host or cells: E. coli BL21 pLysS (R15A, eIF2α); E. coli BL21/pGro7 (PP1c)
# Description: as §2, §4
# [8] = molecular target: T4, R15A; test: Light scattering to monitor aggregation of R15A; details: 1 mM compound, 5 μM R15A, 10 min, 20° C.
# Description: Samples were incubated for 10 min at RT. […] Therefore, light scattering was measured at 380 nm emission, 380 nm absorption to monitor the presence of aggregates. For each sample, 100 data points were collected over a period of 10 min, at 20° C., with constant stirring.
# [9] = system: Charcot-Marie-Tooth 1B (CMT-1B) and a SOD1 form of amyotrophic lateral sclerosis (ALS); details: mice, CMT-1B and SOD1 ALS; cited from earlier work
# [10] = molecular target: T6, R15B^N/R15A^C (Homo sapiens, UniProt O75807+Q5SWA1); test: Dephosphorylation of P-eIF2α by chimeric holophosphatase PP1c-R15B^N/R15A^C; type: biochemical; details: PP1c 10 nM, compounds 100 μM, 30° C., 16 h
# T6 construct: PPP1R15B amino acids 340-698 (R15B), 340-635 (R15B^N), and 636-698 (R15B^C); PPP1R15A amino acids 325-636 (R15A), 325-512 (R15A^N), and 513-636 (R15A^C); R15A^C (PPP1R15A amino acids 513-636); His6 (C); made in house; host or cells: E. coli BL21 pLysS (chimera, eIF2α); E. coli BL21/pGro7 (PP1c)
# Text: as §1, §2, §3
# [11] = molecular target: T7, R15A-PP1c (Homo sapiens, UniProt O75807); test: In vitro dephosphorylation of P-eIF2α by recombinant R15A-PP1c holophosphatase (10 nM PP1c); type: biochemical; details: PP1c 10 nM, 1 μM P-eIF2α, compounds 100 μM, 30° C., 16 h
# T7 construct: PPP1R15A amino acids 325-636 (R15A); His6 (C); made in house; host or cells: E. coli BL21 pLysS (R15A, eIF2α); E. coli BL21/pGro7 (PP1c)
# Description: as §2, §4
structure (smiles),measurement,setting,value
NC(N)=N/N=C/c1ccccc1Cl [Sephin1],inhibition of R15A^N/R15B^C chimeric holophosphatase,[1],inhibited
same,inhibition of PP1c alone,[2],did not inhibit PP1c
same,effect on binding of eIF2α to R15B,[3],not R15B
same,effect on binding of eIF2α to R15A,[4],selectively prevented the binding of eIF2α to R15A
same,α-2 adrenergic activity,[5],devoid of both the α-2 adrenergic activity of Guanabenz
same,binding to R15A,"[6]; 0.5 mM biotinylated compound on Streptavidin beads, 1 μM R15A",directly bind R15A
same,nature of binding to R15A (elution with excess compound),[6]; elution with 2 mM free compound,not covalent
same,effect on dephosphorylation of eIF2α by PP1c with R15A,[7],"neither the selective R15A inhibitors, Guanabenz and Sephin1, nor the selective inhibitor of R15B, Raphin1, had any measurable effects"
same,aggregation of R15A (light scattering at 380 nm),[8],No aggregation
same,prevention of defects in protein-misfolding diseases,[9],"safely prevents the motor, morphological and molecular defects"
same,inhibition of R15B^N/R15A^C chimeric holophosphatase,[10],largely insensitive
same,inhibition of R15A-PP1c eIF2α holophosphatase,[11],selectively inhibited R15A-PP1c
